According to ChEMBL document CHEMBL1132002, “Interaction of tyrosyl aryl dipeptides with S. aureus tyrosyl tRNA synthetase: inhibition and crystal structure of a complex” (Bioorg Med Chem Lett, 1999):

System: Tyrosine--tRNA ligase (Staphylococcus aureus)
Assay: Compound was tested for inhibition of Staphylococcus aureus tyrosyl tRNA Synthetase; NI=No inhibition

IC50: No inhibition
Structure (SMILES): N[C@@H](Cc1ccc(O)cc1)C(=O)N[C@@H](Cc1ccccc1)C(=O)O
